System: H69AR cells, SPARCS high cell lines
Assay: IFN pulse-chase of SCLC and other cancer cell lines; qRT-PCR, immunoblot
Assay type: cell-based, human
Conditions: 10 min pulse with chase
Description: For IFN pulse experiments, cells were pulsed 10 minutes with IFN-γ 200 ng/mL or 10 ng/mL), IFN-α 10 000 U/mL), or IFN-β 10 000 U/mL), extensively washed, and chased in fresh media for an additional 24, 48 or 72 hours. To test drug effects on gene expression or protein secretion, IFN-γ pulsed H69AR cells were treated with DMSO, 1 μM MRT67307 or 100 nM Ruxolitinib for 24, 48 and 72 hours.
Protein was isolated from cell lines and measured by BCA (Pierce Biotechnology). […]
Total cellular RNA was extracted using the miRNeasy Mini Kit (Qiagen, Hilden, Germany) according to manufacturer's instructions. […] Quantitative reverse transcription PCR (qRT-PCR) of the indicated genes was performed using SYBR green PCR Master Mix (Applied Biosystems, Foster City, CA) and the Applied Biosystems 7300 Fast real-time PCR system and software. […]

B1: IFNβ: Recombinant human IFN-β protein from R&D Systems (protein, UniProt P01574 22-187, looked up)
Interferon beta: MSYNLLGFLQRSSNFQCQKLLWQLNGRLEYCLKDRMNFDIPEEIKQLQQFQKEDAALTIYEMLQNIFAIFRQDSSSTGWNETIVENLLANVYHQINHLKTVLEEKLEKEDFTRGKLMSSLHLKRYYGRILHYLKAKEYSHCAWTIVRVEILRNFYFINRLTGYLRN
- SPARCS upregulation (MLT1C49, MLT1A): SPARCS upregulation
